Measurements from patent US5049694A, “Pharmaceutical composition having relaxing activity which contains a nitrate ester as active substance” (Cedona Pharmaceuticals B.V., priority 1988, dated 1991).

What was measured:
[1] = tested on: contracted strips of the rats' arota; experiment: relaxing potency in vitro on phenylefrine-contracted strips of rat aorta; type: cell-based, rat (male Wistar); conditions: read-out: EC50 (concentration with which relaxation took place up to 50% of the contraction induced by 10^-7 M phenylefrine); rat thoracal aorta strips, contracted with 10^-7 M phenylefrine, cumulative concentrations, 37° C.
Protocol: The relaxing potency of the compounds as described is tested in vitro on contracted strips of the rats' arota. Male Wistar rates (200-220 g) are killed by decapitation. The thoracal aorta is removed and is helically cut into strips (length: ±10 mm, width: ±2 mm; 4 strips per rat).
The strips are suspended in organ baths filled with 20 ml of Krebs' medium with a constant temperature of 37° C. passing through O2 /CO2 (95/5) and subsequently for 2 h equilibrated under an isotonic load of 500 mg. The medium is renewed every 20 minutes.
After equilibration contraction takes place by addition of 10^-7M phenylefrine to the medium. After reaching the maximal contraction the composition with the organic nitrate ester to be tested in cumulative concentration steps is relaxed.
The degree of relaxation is expressed as a percentage of the maximal contraction (=100%) reached with 10^-7 M phenylefrine. The relaxing potency of the tested compounds is expressed as the EC50 : the concentration with which relaxation took place up to 50% of the contraction induced by 10^-7 M phenylefrine. From a number of compounds the EC50 -values have been stated in Table 1. For comparison the EC50 -values of glyceryltrinitrate and isosorbidedinitrate have also been included.

heart = conditions: therapeutical use; cited from earlier work
[2] = chronical administration, clinical; cited from earlier work

Row | SMILES | EC50 [1] [nM] | need of oxygen to the heart (heart) | post-load of the heart (heart) | pre-load of the heart (heart) | development of tolerance [2]
1 | O=[N+]([O-])OC1CCCCC1O[N+](=O)[O-] (stereo not shown) | 3000 | – | – | – | –
2 | O=[N+]([O-])OCCCCCO[N+](=O)[O-] | 35 | – | – | – | –
3 | O=[N+]([O-])O[C@H]1CO[C@H]2[C@@H]1OC[C@H]2O[N+](=O)[O-] | 560 | lower need of oxygen to the heart | also affected, be it to a lower extent | diminish especially the pre-load of the heart | development of so-called tolerance
